Sequences of proteins named here, by UniProt entry; tags and fusion partners are left off.
UniProt Q99705, whole entry E4Q/A5T: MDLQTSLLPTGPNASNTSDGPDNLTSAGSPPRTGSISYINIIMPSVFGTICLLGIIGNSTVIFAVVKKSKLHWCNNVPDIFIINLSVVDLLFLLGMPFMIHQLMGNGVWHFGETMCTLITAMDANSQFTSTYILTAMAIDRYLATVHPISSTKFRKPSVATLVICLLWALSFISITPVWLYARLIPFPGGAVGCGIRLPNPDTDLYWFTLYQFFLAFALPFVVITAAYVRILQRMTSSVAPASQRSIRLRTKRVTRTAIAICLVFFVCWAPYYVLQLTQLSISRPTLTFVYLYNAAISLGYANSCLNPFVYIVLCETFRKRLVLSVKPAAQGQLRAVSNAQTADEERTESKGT

According to patent US9499482B2, “Pyrrolone or pyrrolidinone melanin concentrating hormone receptor-1 antagonists” (BRISTOL-MYERS SQUIBB COMPANY, priority 2012, dated 2016):

Molecular target: human melanin concentrating hormone receptor (MCHR1), mutated (E4Q, A5T) hMCHR1 (Homo sapiens (Human), UniProt Q99705, A5T/E4Q)
Assay: Radioligand binding assay for assessment of MCHR1 activity ([125I]-MCH competition, HEK-293 membranes)
Conditions: membranes from HEK-293 cells expressing mutated (E4Q, A5T) hMCHR1; 0.06-0.1 nM [Phe13,[125I]Tyr19]-MCH
Experimental: Radioligand Binding Assay for Assessment of MCHR1 Activity
An in vitro binding assay was used to determine the compound Ki value or ability to antagonize binding of a peptide agonist to the human melanin concentrating hormone receptor (MCHR1). Membranes from stably transfected HEK-293 cells expressing a mutated (E4Q, A5T) hMCHR1 receptor were prepared by dounce homogenization and differential centrifugation. […] Filters were dried, 0.05 mL MicroScint 20 was added to each well and radioactivity was subsequently quantified by scintillation counting on a TOPCOUNT® microplate scintillation counter (Packard). Inhibitory constants were determined by nonlinear least squares analysis using a four parameter logistic equation.

Compared with `COc1cc(N2CC[C@H](Oc3ccc(C4CC4)cc3)C2=O)ccc1OCCN1CCCC1` (stereo in doubt) [Example 1, 3-(4-cyclopropylphenoxy)-1-(3-methoxy-4-(2-(pyrrolidin-1-yl)ethoxy)phenyl)pyrrolidin-2-one], `COc1cc(N2CC[C@@H](Oc3ccc(C4CC4)cc3)C2=O)ccc1OCCN1CCCC1` (stereo in doubt) [Example 2, 3-(4-cyclopropylphenoxy)-1-(3-methoxy-4-(2-(pyrrolidin-1-yl)ethoxy)phenyl)pyrrolidin-2-one] is 12-fold higher in Ki: 2 nM for the first, 24 nM for the second.

`CNCCOc1ccc(N2CC[C@H](Oc3ccc(C4CC4)cc3)C2=O)cc1OC` (stereo in doubt) [Example 15, 3-(4-cyclopropylphenoxy)-1-(3-methoxy-4-(2-(methylamino)ethoxy)phenyl)pyrrolidin-2-one] and `COc1cc(N2CC[C@H](Oc3ccc(C4CC4)cc3)C2=O)ccc1OCCNC(C)(C)C` [Example 24] are within 1.5-fold of each other in Ki: 1.6 nM for the first, 2 nM for the second.

Going from `CCc1cc(N2CC[C@@H](Oc3ccc(C4CC4)cc3)C2=O)ccc1OCCN1CCCC1` (stereo in doubt) [Example 42, 3-(4-Cyclopropylphenoxy)-1-(3-ethyl-4-(2-(pyrrolidin-1-yl)ethoxy)phenyl)pyrrolidin-2-one] to `COc1cc(N2CC[C@H](Oc3ccc(C4CC4)cc3)C2=O)ccc1OCCNCCN1CCCC1` [Example 23], the Ki falls from 5 nM to 2 nM (2.5-fold).

Compared with `COc1cc(N2CC[C@H](Oc3ccc(-c4ccccc4)cc3)C2=O)ccc1OCCN1CCCC1` (stereo in doubt) [Example 108, 3-(biphenyl-4-yloxy)-1-(3-methoxy-4-(2-(pyrrolidin-1-yl)ethoxy)phenyl)pyrrolidin-2-one], `COc1cc(N2CC[C@@H](Oc3ccc(-c4ccccc4)cc3)C2=O)ccc1OCCN1CCCC1` (stereo in doubt) [Example 109, 3-(biphenyl-4-yloxy)-1-(3-methoxy-4-(2-(pyrrolidin-1-yl)ethoxy)phenyl)pyrrolidin-2-one] is 28-fold higher in Ki: 0.5 nM for the first, 14 nM for the second.

Going from `CCc1cc(N2CC[C@H](Oc3ccc(-c4ccccc4)cc3)C2=O)ccc1OCCN1CCCC1` (stereo in doubt) [Example 110, 3-(biphenyl-4-yloxy)-1-(3-ethyl-4-(2-(pyrrolidin-1-yl)ethoxy)phenyl)pyrrolidin-2-one] to `CCc1cc(N2CC[C@@H](Oc3ccc(-c4ccccc4)cc3)C2=O)ccc1OCCN1CCCC1` (stereo in doubt) [Example 111, 3-(biphenyl-4-yloxy)-1-(3-ethyl-4-(2-(pyrrolidin-1-yl)ethoxy)phenyl)pyrrolidin-2-one], the Ki rises from 0.5 nM to 12 nM (24-fold). The first binds more tightly here.

Going from `Cc1cc(N2CC[C@H](Oc3ccc(-c4ccccc4)cc3)C2=O)ccc1OCCN1CCCC1` (stereo in doubt) [Example 112, 3-(biphenyl-4-yloxy)-1-(3-methyl-4-(2-(pyrrolidin-1-yl)ethoxy)phenyl)pyrrolidin-2-one] to `Cc1cc(N2CC[C@@H](Oc3ccc(-c4ccccc4)cc3)C2=O)ccc1OCCN1CCCC1` (stereo in doubt) [Example 113, 3-(biphenyl-4-yloxy)-1-(3-methyl-4-(2-(pyrrolidin-1-yl)ethoxy)phenyl)pyrrolidin-2-one], the Ki rises from 0.5 nM to 15 nM (30-fold).

Going from `O=C1[C@@H](Oc2ccc(-c3ccccc3)cc2)CCN1c1ccc(OCCN2CCCC2)c(Cl)c1` (stereo in doubt) [Example 114, 3-([1,1′-biphenyl]-4-yloxy)-1-(3-chloro-4-(2-(pyrrolidin-1-yl)ethoxy)phenyl)pyrrolidin-2-one] to `O=C1[C@H](Oc2ccc(-c3ccccc3)cc2)CCN1c1ccc(OCCN2CCCC2)c(Cl)c1` (stereo in doubt) [Example 115, 3-([1,1′-biphenyl]-4-yloxy)-1-(3-chloro-4-(2-(pyrrolidin-1-yl)ethoxy)phenyl)pyrrolidin-2-one], the Ki rises from 0.5 nM to 12 nM (24-fold). The first binds more tightly here.

Compared with `COc1cc(N2CC[C@H](Oc3ccc(C4CC4)cc3)C2=O)ccc1N1CCOCC1` (stereo in doubt) [Example 134, 3-(4-cyclopropylphenoxy)-1-(3-methoxy-4-morpholinophenyl)pyrrolidin-2-one], `COc1cc(N2CC[C@@H](Oc3ccc(C4CC4)cc3)C2=O)ccc1N1CCOCC1` (stereo in doubt) [Example 135, 3-(4-cyclopropylphenoxy)-1-(3-methoxy-4-morpholinophenyl)pyrrolidin-2-one] is 41-fold higher in Ki: 13 nM for the first, 534 nM for the second. The first binds more tightly here.

First: CCc1cc(N2CC[C@H](Oc3ccc(C4CC4)cc3)C2=O)ccc1N1CCCC1 (stereo in doubt) [Example 136, 3-(4-cyclopropylphenoxy)-1-(3-ethyl-4-(pyrrolidin-1-yl)phenyl)pyrrolidin-2-one]
Second: CCc1cc(N2CC[C@@H](Oc3ccc(C4CC4)cc3)C2=O)ccc1N1CCCC1 (stereo in doubt) [Example 137, 3-(4-cyclopropylphenoxy)-1-(3-ethyl-4-(pyrrolidin-1-yl)phenyl)pyrrolidin-2-one]
The Ki of the first is 8.1-fold lower: 167 nM for the first, 1360 nM for the second.

`COc1cc(N2CC[C@H](Oc3ccc(C4CC4)cc3)C2=O)ccc1OCCN1CC[C@H](F)C1` [Example 3] and `COc1cc(N2CC[C@H](Oc3ccc(C4CC4)cc3)C2=O)ccc1OCCN1CC[C@@H](F)C1` [Example 4] are the same in Ki: 2 nM for the first, 2 nM for the second.

`COc1cc(N2CC[C@H](Oc3ccc(C4CC4)cc3)C2=O)ccc1OCCN1CC[C@H](O)C1` [Example 5] and `COc1cc(N2CC[C@H](Oc3ccc(C4CC4)cc3)C2=O)ccc1OCCN1CC[C@@H](O)C1` [Example 6] are the same in Ki: 2 nM for the first, 2 nM for the second.

Compared with `COc1cc(N2CC[C@H](Oc3ccc(C4CC4)cc3)C2=O)ccc1OCCN1CCC(F)(F)C1` [Example 7], `COc1cc(N2CC[C@H](Oc3ccc(C4CC4)cc3)C2=O)ccc1OCCN1CCC(F)(F)CC1` [Example 20] is 1.8-fold lower in Ki: 7 nM for the first, 4 nM for the second.

`COc1cc(N2CC[C@H](Oc3ccc(C4CC4)cc3)C2=O)ccc1OCCN1CCC[C@@H]1CO` [Example 8] and `COc1cc(N2CC[C@H](Oc3ccc(C4CC4)cc3)C2=O)ccc1OCCN1CCC[C@H]1CO` [Example 9] are within 1.5-fold of each other in Ki: 2.5 nM for the first, 2 nM for the second.

First: COc1cc(N2CC[C@H](Oc3ccc(C4CC4)cc3)C2=O)ccc1OCCN1CC(O)C1 [Example 10]
Second: COc1cc(N2CC[C@H](Oc3ccc(C4CC4)cc3)C2=O)ccc1OCCN1CCC[C@H](O)C1 [Example 19]
The Ki of the first is 2.5-fold higher: 4 nM for the first, 1.6 nM for the second. The second binds more tightly here.

`COc1cc(N2CC[C@H](Oc3ccc(C4CC4)cc3)C2=O)ccc1OCCN(C)CCO` [Example 11] and `COc1cc(N2CC[C@H](Oc3ccc(C4CC4)cc3)C2=O)ccc1OCCN(C)C` [Example 14] are the same in Ki: 2 nM for the first, 2 nM for the second.

Going from `COc1cc(N2CC[C@H](Oc3ccc(C4CC4)cc3)C2=O)ccc1OCCN1CCNC(=O)C1` [Example 13] to `COc1cc(N2CC[C@H](Oc3ccc(C4CC4)cc3)C2=O)ccc1OCCN1CCOCC1` [Example 17], the Ki falls from 11 nM to 3 nM (3.7-fold).

Going from `COc1cc(N2CC[C@H](Oc3ccc(C4CC4)cc3)C2=O)ccc1OCCNC1(C)COC1` [Example 16] to `COc1cc(N2CC[C@H](Oc3ccc(C4CC4)cc3)C2=O)ccc1OCCNC1(CO)CCCC1` [Example 25], the Ki falls from 5 nM to 2 nM (2.5-fold).

`COc1cc(N2CC[C@H](Oc3ccc(C4CC4)cc3)C2=O)ccc1OCCN1CC[C@@H](N(C)C)C1` [Example 18] and `COc1cc(N2CC[C@H](Oc3ccc(C4CC4)cc3)C2=O)ccc1OCCN1CCN(c2cnccn2)CC1` [Example 22] are within 1.5-fold of each other in Ki: 3 nM for the first, 4 nM for the second.

First: COc1cc(N2CC[C@H](Oc3ccc(C4CC4)cc3)C2=O)ccc1OCCNC12CC3CC(CC(O)(C3)C1)C2 [Example 21]
Second: COc1cc(N2CC[C@H](Oc3ccc(C4CC4)cc3)C2=O)ccc1OCCNCC(C)(C)N1CCOCC1 [Example 27]
The Ki of the first is 2.5-fold lower: 2 nM for the first, 5 nM for the second. The first binds more tightly here.
